Results published in PubChem BioAssay (NCI).
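Tested at 5 concentrations; 48 h exposure; 96-well plates; endpoints linearly interpolated, else capped at highest concentration. GI50 marks 50% less growth. TGI marks complete inhibition of growth.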

Assays:
Experiment in all cases: NCI-60 cell line screen, 48 h
KM12 colon = test system: KM12 colon
UO-31 renal = test system: UO-31 renal
SK-OV-3 ovarian = test system: SK-OV-3 ovarian
HT29 colon = test system: HT29 colon
M19-MEL melanoma = test system: M19-MEL melanoma
A549 NSCLC = test system: A549 NSCLC
HCC-2998 colon = test system: HCC-2998 colon
NCI-H226 lung = test system: NCI-H226 lung
U251 CNS = test system: U251 CNS
NCI-H460 lung = test system: NCI-H460 lung
RXF-631 renal = test system: RXF-631 renal
KM20L2 colon = test system: KM20L2 colon
HOP-62 NSCLC = test system: HOP-62 NSCLC
MOLT-4 leukemia = test system: MOLT-4 leukemia
SW-620 colon = test system: SW-620 colon
MALME-3M melanoma = test system: MALME-3M melanoma
A498 renal = test system: A498 renal
XF 498 CNS = test system: XF 498 CNS
786-0 renal = test system: 786-0 renal
SNB-75 CNS = test system: SNB-75 CNS
SN12C renal = test system: SN12C renal
SF-295 CNS = test system: SF-295 CNS
DMS 273 small cell lung = test system: DMS 273 small cell lung
DMS 114 small cell lung = test system: DMS 114 small cell lung
NCI-H322M lung = test system: NCI-H322M lung
EKVX NSCLC = test system: EKVX NSCLC
TK-10 renal = test system: TK-10 renal
NCI-H522 lung = test system: NCI-H522 lung
HL-60(TB) leukemia = test system: HL-60(TB) leukemia
CCRF-CEM leukemia = test system: CCRF-CEM leukemia
COLO 205 colon = test system: COLO 205 colon
CAKI-1 renal = test system: CAKI-1 renal
UACC-257 melanoma = test system: UACC-257 melanoma
HOP-92 NSCLC = test system: HOP-92 NSCLC
SNB-78 CNS = test system: SNB-78 CNS
DLD-1 colon = test system: DLD-1 colon
K-562 leukemia = test system: K-562 leukemia
SK-MEL-2 melanoma = test system: SK-MEL-2 melanoma
SF-539 CNS = test system: SF-539 CNS
SNB-19 CNS = test system: SNB-19 CNS
LOX IMVI melanoma = test system: LOX IMVI melanoma
SK-MEL-28 melanoma = test system: SK-MEL-28 melanoma
OVCAR-3 ovarian = test system: OVCAR-3 ovarian
OVCAR-8 ovarian = test system: OVCAR-8 ovarian
IGROV1 ovarian = test system: IGROV1 ovarian
RXF 393 renal = test system: RXF 393 renal
M14 melanoma = test system: M14 melanoma
RPMI-8226 leukemia = test system: RPMI-8226 leukemia
SF-268 CNS = test system: SF-268 CNS
SK-MEL-5 melanoma = test system: SK-MEL-5 melanoma
UACC-62 melanoma = test system: UACC-62 melanoma
LXFL 529 NSCLC = test system: LXFL 529 NSCLC

Q: For `Cc1[nH]c2cc([N+](=O)[O-])c([N+](=O)[O-])cc2c1[N+](=O)[O-]`, which GI50 (KM12 colon) is on record?
A: Its GI50 is 13.3 µM.

Q: What about the TGI (KM12 colon) of the same molecule?
A: The TGI was 49.1 µM.

Q: What about the GI50 (UO-31 renal) of the same molecule?
A: Its GI50 is 13.8 µM.

Q: And the TGI (UO-31 renal)?
A: The TGI was 36.6 µM.

Q: And the GI50 (SK-OV-3 ovarian)?
A: The GI50 was 22.2 µM.

Q: And the TGI (SK-OV-3 ovarian)?
A: Its TGI is 56.3 µM.

Q: And the GI50 (HT29 colon)?
A: Its GI50 is 17.5 µM.

Q: What about the TGI (HT29 colon) of the same molecule?
A: Its TGI is 51.9 µM.

Q: What about the GI50 (M19-MEL melanoma) of the same molecule?
A: The GI50 was 20.1 µM.

Q: What about the TGI (M19-MEL melanoma) of the same molecule?
A: The TGI was 66.7 µM.

Q: What about the GI50 (A549 NSCLC) of the same molecule?
A: The GI50 was 19.4 µM.

Q: And the TGI (A549 NSCLC)?
A: Its TGI is 82.4 µM.

Q: What about the GI50 (HCC-2998 colon) of the same molecule?
A: Its GI50 is 15.4 µM.

Q: And the TGI (HCC-2998 colon)?
A: Its TGI is 30 µM.

Q: What about the GI50 (NCI-H226 lung) of the same molecule?
A: The GI50 was 20.7 µM.

Q: And the TGI (NCI-H226 lung)?
A: Its TGI is 52.5 µM.

Q: What about the GI50 (U251 CNS) of the same molecule?
A: The GI50 was 14.7 µM.

Q: And the TGI (U251 CNS)?
A: The TGI was 69 µM.

Q: And the GI50 (NCI-H460 lung)?
A: The GI50 was 21.4 µM.

Q: And the TGI (NCI-H460 lung)?
A: The TGI was greater than 100 µM.

Q: What about the GI50 (RXF-631 renal) of the same molecule?
A: Its GI50 is 8.94 µM.

Q: And the TGI (RXF-631 renal)?
A: Its TGI is 37.1 µM.

Q: What about the GI50 (KM20L2 colon) of the same molecule?
A: The GI50 was 23 µM.

Q: What about the TGI (KM20L2 colon) of the same molecule?
A: Its TGI is 71.6 µM.

Q: What about the GI50 (HOP-62 NSCLC) of the same molecule?
A: The GI50 was 21.4 µM.

Q: What about the TGI (HOP-62 NSCLC) of the same molecule?
A: Its TGI is 51.5 µM.

Q: What about the GI50 (MOLT-4 leukemia) of the same molecule?
A: The GI50 was 15.3 µM.

Q: And the TGI (MOLT-4 leukemia)?
A: The TGI was 45.8 µM.

Q: What about the GI50 (SW-620 colon) of the same molecule?
A: The GI50 was 24 µM.

Q: And the TGI (SW-620 colon)?
A: The TGI was 71.1 µM.

Q: What about the GI50 (MALME-3M melanoma) of the same molecule?
A: Its GI50 is 14.6 µM.

Q: And the TGI (MALME-3M melanoma)?
A: Its TGI is 37.5 µM.

Q: And the GI50 (A498 renal)?
A: Its GI50 is 14.6 µM.

Q: And the TGI (A498 renal)?
A: Its TGI is 44.4 µM.

Q: What about the GI50 (XF 498 CNS) of the same molecule?
A: The GI50 was 18.1 µM.

Q: And the TGI (XF 498 CNS)?
A: The TGI was 48.1 µM.

Q: What about the GI50 (786-0 renal) of the same molecule?
A: The GI50 was 20.6 µM.

Q: What about the TGI (786-0 renal) of the same molecule?
A: Its TGI is 86 µM.

Q: And the GI50 (SNB-75 CNS)?
A: The GI50 was 9.98 µM.

Q: What about the TGI (SNB-75 CNS) of the same molecule?
A: The TGI was 43.2 µM.

Q: And the GI50 (SN12C renal)?
A: The GI50 was 22.2 µM.

Q: What about the TGI (SN12C renal) of the same molecule?
A: The TGI was greater than 100 µM.

Q: And the GI50 (SF-295 CNS)?
A: Its GI50 is 9.64 µM.

Q: And the TGI (SF-295 CNS)?
A: The TGI was 40.2 µM.

Q: And the GI50 (DMS 273 small cell lung)?
A: Its GI50 is 16.2 µM.

Q: What about the TGI (DMS 273 small cell lung) of the same molecule?
A: The TGI was 43.4 µM.

Q: What about the GI50 (DMS 114 small cell lung) of the same molecule?
A: The GI50 was 14.4 µM.

Q: And the TGI (DMS 114 small cell lung)?
A: The TGI was 32.2 µM.

Q: And the GI50 (NCI-H322M lung)?
A: The GI50 was 12.8 µM.

Q: And the TGI (NCI-H322M lung)?
A: The TGI was 39.3 µM.

Q: What about the GI50 (EKVX NSCLC) of the same molecule?
A: Its GI50 is 30.2 µM.

Q: What about the TGI (EKVX NSCLC) of the same molecule?
A: Its TGI is 84.1 µM.

Q: And the GI50 (TK-10 renal)?
A: Its GI50 is 19.4 µM.

Q: What about the TGI (TK-10 renal) of the same molecule?
A: Its TGI is 56 µM.

Q: And the GI50 (NCI-H522 lung)?
A: The GI50 was 8.91 µM.

Q: And the TGI (NCI-H522 lung)?
A: Its TGI is 26.7 µM.

Q: What about the GI50 (HL-60(TB) leukemia) of the same molecule?
A: The GI50 was 13.5 µM.

Q: What about the TGI (HL-60(TB) leukemia) of the same molecule?
A: The TGI was 50 µM.

Q: And the GI50 (CCRF-CEM leukemia)?
A: Its GI50 is 15.6 µM.

Q: What about the TGI (CCRF-CEM leukemia) of the same molecule?
A: The TGI was 59.6 µM.

Q: And the GI50 (COLO 205 colon)?
A: The GI50 was 13.7 µM.

Q: And the TGI (COLO 205 colon)?
A: The TGI was 28 µM.

Q: And the GI50 (CAKI-1 renal)?
A: The GI50 was 18.5 µM.

Q: What about the TGI (CAKI-1 renal) of the same molecule?
A: Its TGI is 72.2 µM.

Q: And the GI50 (UACC-257 melanoma)?
A: The GI50 was 16.3 µM.

Q: What about the TGI (UACC-257 melanoma) of the same molecule?
A: The TGI was 56.2 µM.

Q: And the GI50 (HOP-92 NSCLC)?
A: The GI50 was 3.53 µM.

Q: And the TGI (HOP-92 NSCLC)?
A: Its TGI is 20.1 µM.

Q: And the GI50 (SNB-78 CNS)?
A: The GI50 was 13.3 µM.

Q: What about the TGI (SNB-78 CNS) of the same molecule?
A: Its TGI is 61.4 µM.

Q: What about the GI50 (DLD-1 colon) of the same molecule?
A: Its GI50 is 24.9 µM.

Q: What about the TGI (DLD-1 colon) of the same molecule?
A: The TGI was 77.5 µM.

Q: What about the GI50 (K-562 leukemia) of the same molecule?
A: The GI50 was 13.5 µM.

Q: And the TGI (K-562 leukemia)?
A: The TGI was 60 µM.

Q: And the GI50 (SK-MEL-2 melanoma)?
A: Its GI50 is 16.7 µM.

Q: And the TGI (SK-MEL-2 melanoma)?
A: The TGI was 44 µM.

Q: What about the GI50 (SF-539 CNS) of the same molecule?
A: The GI50 was 12.3 µM.

Q: And the TGI (SF-539 CNS)?
A: The TGI was 52.5 µM.

Q: And the GI50 (SNB-19 CNS)?
A: Its GI50 is 15.2 µM.

Q: And the TGI (SNB-19 CNS)?
A: The TGI was 77.8 µM.

Q: What about the GI50 (LOX IMVI melanoma) of the same molecule?
A: Its GI50 is 23.9 µM.

Q: And the TGI (LOX IMVI melanoma)?
A: The TGI was 95.8 µM.

Q: And the GI50 (SK-MEL-28 melanoma)?
A: The GI50 was 18.6 µM.

Q: And the TGI (SK-MEL-28 melanoma)?
A: The TGI was 60.9 µM.

Q: What about the GI50 (OVCAR-3 ovarian) of the same molecule?
A: Its GI50 is 14.7 µM.

Q: And the TGI (OVCAR-3 ovarian)?
A: Its TGI is 46.3 µM.

Q: And the GI50 (OVCAR-8 ovarian)?
A: The GI50 was 25.6 µM.

Q: And the TGI (OVCAR-8 ovarian)?
A: The TGI was 82 µM.

Q: And the GI50 (IGROV1 ovarian)?
A: The GI50 was 28.1 µM.

Q: And the TGI (IGROV1 ovarian)?
A: The TGI was 87.4 µM.

Q: What about the GI50 (RXF 393 renal) of the same molecule?
A: Its GI50 is 17.3 µM.

Q: And the TGI (RXF 393 renal)?
A: The TGI was 59.3 µM.

Q: And the GI50 (M14 melanoma)?
A: The GI50 was 16.7 µM.

Q: And the TGI (M14 melanoma)?
A: Its TGI is 40.2 µM.

Q: And the GI50 (RPMI-8226 leukemia)?
A: The GI50 was 2.86 µM.

Q: What about the TGI (RPMI-8226 leukemia) of the same molecule?
A: Its TGI is 27.5 µM.

Q: What about the GI50 (SF-268 CNS) of the same molecule?
A: The GI50 was 31.7 µM.

Q: What about the TGI (SF-268 CNS) of the same molecule?
A: Its TGI is greater than 100 µM.

Q: What about the GI50 (SK-MEL-5 melanoma) of the same molecule?
A: The GI50 was 14.4 µM.

Q: What about the TGI (SK-MEL-5 melanoma) of the same molecule?
A: Its TGI is 34.1 µM.

Q: And the GI50 (UACC-62 melanoma)?
A: The GI50 was 14.7 µM.

Q: What about the TGI (UACC-62 melanoma) of the same molecule?
A: Its TGI is 43.3 µM.

Q: What about the GI50 (LXFL 529 NSCLC) of the same molecule?
A: The GI50 was 12.9 µM.

Q: And the TGI (LXFL 529 NSCLC)?
A: Its TGI is 28.9 µM.
